The values below come from patent US20060025344A1, “Ghrelin receptor inverse agonists for regulation of feeding behaviors” (7TM Pharma A/S, priority 2002, published 2006).

By UniProt entry, the sequences of proteins in these tests, tags left out.
UniProt Q92847, whole entry: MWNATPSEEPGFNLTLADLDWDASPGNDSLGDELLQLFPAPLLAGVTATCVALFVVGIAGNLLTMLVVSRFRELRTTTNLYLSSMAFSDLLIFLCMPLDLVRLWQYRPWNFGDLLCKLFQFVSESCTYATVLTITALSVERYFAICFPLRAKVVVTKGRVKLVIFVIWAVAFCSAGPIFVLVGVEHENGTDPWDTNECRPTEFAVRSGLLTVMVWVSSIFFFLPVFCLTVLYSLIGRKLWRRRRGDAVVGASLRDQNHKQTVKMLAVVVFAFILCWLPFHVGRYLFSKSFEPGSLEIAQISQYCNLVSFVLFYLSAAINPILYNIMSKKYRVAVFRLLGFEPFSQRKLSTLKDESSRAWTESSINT

Each structure is given as a SMILES string. Entries after “also recorded” stand apart in the source; their conditions may differ. Where two headings read alike, the source gives them in different places.

Experiment [1] deals with T1, human ghrelin receptor (Homo sapiens, UniProt Q92847). Put plainly: cell-based.
In experiment [2] the target is T1, human ghrelin receptor. To be noted: 10^-6, 10^-7 and 10^-8 M of the peptide.
Experiment [3] deals with T1, human ghrelin receptor. Put plainly: Inverse agonism on basal, constitutive signalling measured by inositol phosphate turnover in transiently transfected COS-7 cells. To be noted: wild-type ghrelin receptor. The class given is cell-based. The method, then: Cells were transfected with Lipofectamine 2000 (Life Technologies).
Cells were washed twice in buffer, 20 mM HEPES, pH 7.4, supplemented with 140 mM NaCl, 5 mM KCl, 1 mM MgSO4, 1 mM CaCl2, 10 mM glucose, 0.05% (w/v) bovine serum; and were incubated in 0.5 ml buffer supplemented with 10 mM LiCl at 37 °C. for 30 min. […] Determinations were made in duplicates.

Compound `CC(C)C[C@H](NC(=O)[C@H](CC(C)C)NC(=O)[C@@H](Cc1c[nH]c2ccccc12)NC(=O)[C@H](Cc1ccccc1)NC(=O)[C@@H](Cc1c[nH]c2ccccc12)NC(=O)[C@H](CCC(N)=O)NC(=O)[C@@H](Cc1ccccc1)NC(=O)[C@@H]1CCCN1C(=O)[C@H](CCCCN)NC(=O)[C@@H]1CCCN1C(=O)[C@H](N)CCCNC(=N)N)C(N)=O` [[D-Arg^1, D-Phe^5, D-Trp^7,9, Leu^11]-Substance P] displayed an EC50 on human ghrelin receptor [1] of 630 nM. Besides, the IC50 came out at 630 ± 20 nM at human ghrelin receptor [1] and 5.2 ± 0.7 nM at human ghrelin receptor [3] (no agonist, COS-7, IP turnover, read-out: IC50 for inverse agonism, inhibition of the basal, constitutive signalling). The “Schild-like analysis: shift of the dose-response curve for ghrelin at low doses that inhibit basal signalling” value was “do not shift the dose-response curve for ghrelin to the right” at human ghrelin receptor [2] and “without shifting the dose-response-curve for ghrelin to the right” on human ghrelin receptor [2] (listed as SP-analog). Moreover, the “efficacy as inverse agonist (in words)” value at human ghrelin receptor [3] (absence of ghrelin) is “high efficacy, full inverse agonist; also recorded: potent and highly efficacious inverse agonist”.

A word on the EC50: it is the concentration needed to bring the measured effect to its halfway point. Read a low EC50 as an effect from little substance. The term IC50 denotes the concentration that gives 50% inhibition.
